How the values were obtained:
[1] = tested on: Plasmodium falciparum strain 3D7; assay: Growth inhibition assay with asexual Plasmodium falciparum (HRP2 ELISA); format: cell-based; conditions: for IC50: Plasmodium falciparum
[2] = tested on: Plasmodium falciparum strain 3D7; assay: Apicoplast as target: growth inhibition with and without IPP supplementation; format: cell-based; conditions: 3D7, 144 h

`CCC[C@@H]1C[C@@H](C(=O)N[C@@H]([C@H]2O[C@H](SC)[C@H](O)[C@@H](O)[C@H]2O)[C@H](C)Cl)N(C)C1` [Clindamycin] was tested, and the “Fold differences, 6 day-assays” value ([1]; IC50 3D7 versus A1-H.1, 6 days) was 0.4, the IC50 ([1]; 3D7, 72 h, read-out: IC50, 3 day-assays, 3D7) was > 18000 nM and the IC50 ([1]; 3D7, 144 h, read-out: IC50, 6 day-assays, 3D7) was 5.9 nM. For the same compound, the IC50 ([2]; read-out: IC50, IPP-supplemented) was > 18000 nM and the IC50 ([2]; read-out: IC50, control without IPP) was 6.9 nM.
